# Measured values: US20180217151A1 (MILTENYI BIOTEC, published 2018)
# Target: T1, recombinant CD8 antigen ( (the Fab labels human PBMCs))
# T1 construct: extracellular domain; also called CD8, recombinant extracellular domain
# Experiment: SPR (Biacore), recombinant antigen (extracellular domain) immobilized by amine coupling, Fab as analyte, 1:1 binding mass transfer model
# Method: FIGS. 7A and 7B show surface plasmon resonance sensorgrams of anti-CD25 rFabs using immobilized recombinant CD25 antigen. At t 110 sec, different concentrations of Fab were injected for 180 sec. At t 290 sec, the dissociation phase started. […] FIG. 7B: RFT5-LAV rFab as an example for an antigen binding molecule that enables reversible labeling.
# The Fab variants of example 1 and 4 were analyzed by surface plasmon resonance spectroscopy (Biacore™). Therefore, the specific recombinant antigen (extracellular domain, expressed in mammalian cells) for a Fab was immobilized on a CMS chip by standard amine coupling. The Fab variants were used as analytes in HBS-EP buffer (0.01 M HEPES pH 7.4, 0.15 M NaCl, 3 mM EDTA, 0.005% v/v Surfactant P20) in a concentration of up to 2 μM Fab. Evaluation was conducted with the Biacore™ X-100 Evaluation Software using an 1:1 binding mass transfer model. […] FIG. 7 exemplarily depicts Biacore™ sensorgrams of the anti-CD25 Fabs RFT5 rFab (FIG. 7A) and RFT5-LAV rFab (FIG. 7B) against immobilized recombinant CD25 antigen. In addition, published values of the anti-CD4 Fab variants wild-type, 13B8.2-Y92A, and 13B8.2-F100A are shown (taken from U.S. Pat. No. 7,482,000).
binder,measurement,value
"OKT8-LAV rFab (Fab, V domains shown, biotin (thiol-reactive reagent, e.g. maleimide-PEO2-biotin) on cysteine(s) of the reduced disulfide bridge; position not stated) VH: EVQLQQSGAELVKPGASVKLSCTASGFNIKDTYIHFVRQRPEQGLEWIGRIDPANDNTIYASKFQGKATITADTSSNTAYMHLSSLTSGDTAVYYCGRGYGYYVFDHWGQGTTVTVSS VL: DVQINQSPSFLAASPGETITINCRTSRSISQYLAWYQEKPGKTNKLLIYSGSTLQSGIPSRFSGSGSGTDFTLTISGLEPEDFAMYYCQQANENPLTFGAGTKLELRR",Kd,29 nM
same,koff,0.004 s⁻¹
same,kon,140000 M⁻¹ s⁻¹
